# Ab-14 light chain CDR variants: yeast mating affinities

Reference: Li et al. 2023, doi:10.1038/s41467-023-39022-2. File: FLAb, binding data.

Binding partner: SARS-CoV-2 spike HR2 peptide, sequence PDVDLGDISGINAS.

Parent: Ab-14, a human scFv built as VH, three GGGGS repeats, VL. Only the CDRs of the light chain vary.
VH: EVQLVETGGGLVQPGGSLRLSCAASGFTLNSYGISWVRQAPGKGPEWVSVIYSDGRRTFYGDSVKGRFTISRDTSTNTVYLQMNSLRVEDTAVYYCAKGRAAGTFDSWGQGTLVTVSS
VL: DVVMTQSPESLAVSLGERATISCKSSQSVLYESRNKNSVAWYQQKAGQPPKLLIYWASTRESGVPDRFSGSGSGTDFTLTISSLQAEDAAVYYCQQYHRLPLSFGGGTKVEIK

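Phage display of a naive human antibody library on the peptide gave the parent. This is the validation round: designs drawn from the data on random variants, tested in the same kind of assay. Their group label is 14L_GP_Gibbs (GP: Gaussian process model; Gibbs: Gibbs sampling; a sequence that several methods proposed may carry one label only). Affinity was read by AlphaSeq, a pooled yeast mating assay with surface-displayed partners. After mating in shaken culture at 30 °C for 16 h, diploids were selected and their barcode pairs sequenced. A regression on co-assayed BCL2-family reference pairs converts the normalised counts of each replicate to an apparent Kd. Each pool was mated in six replicate cultures.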

Variants are written as CDR1, CDR2 and CDR3 of the light chain (limits as in the source). Parent: KSSQSVLYESRNKNSVA, WASTRES, QQYHRLPLS.
Affinities are written as log10 Kd with Kd in nM; a lower number is a better binder.
A mean of the replicates is given; it leaves out those without a signal.
"n.d." means that the variant was in the library but no mating with the target was seen in that replicate; the authors take this as a sign of poor binding, and no number exists.

CDR-L1 | CDR-L2 | CDR-L3 | log10 Kd, replicates | mean, log10 nM | control signals
KMSQSVLGLDRNWNSVA | YASTREM | QQYHRLPLS | 0.55 / 0.31 / 0.98 / 0.47 / 0.34 / 0.52 | 0.53 | 2 of 18 (3.04)
KVSQAVPYEQRNKNNVA | DGSTRES | QQYHRLPLS | -0.14 / -0.23 / 0.03 / -0.22 / -0.11 / -0.17 | -0.14 | 1 of 18 (3.93)
KSSISEDYEDRNQNSVA | SASQREH | QQYHRLPLS | 0.86 / 0.79 / 0.95 / 0.69 / 0.61 / 0.81 | 0.79 | 0 of 18
KLSTSQLYWSRNFNSVA | QASTRET | QQYHRLPLS | 1.25 / 1.05 / 0.79 / 0.77 / 1.20 / 1.29 | 1.06 | 2 of 18 (2.49)
KISQSYLMESRNCNSVA | NASTRLW | QQYHRLPLS | 0.55 / 0.22 / 0.25 / 0.09 / 0.22 / 0.32 | 0.28 | 1 of 18 (2.75)
KASPSEEYESRNKNSVA | NASTRYS | QQYHRLPLS | 0.86 / 1.16 / 1.48 / 1.55 / 0.95 / 1.73 | 1.29 | 0 of 18
KLMNSMLYESRNTNSVA | HASRRES | QQYHRLPLS | 0.85 / 0.76 / 0.78 / 0.61 / 0.61 / 0.98 | 0.77 | 2 of 18 (2.52)
KMSMSWPYEDLNKNSVA | NASTRMQ | QQYHRLPLS | 0.56 / 0.61 / 0.45 / 0.26 / 0.39 / 0.68 | 0.49 | 1 of 18 (2.67)
KLSQSVEYQSRDKNAVA | DAQTRES | QQYHRLPLS | 0.06 / -0.06 / -0.13 / -0.27 / -0.19 / -0.07 | -0.11 | 1 of 18 (2.65)
KSSISSLYEERNDNSVA | NASQREH | QQYHRLPLS | 1.21 / 0.76 / 0.82 / 0.39 / 1.04 / 0.99 | 0.87 | 0 of 18
KMSQSQPYESRMSNAVA | NASLRMS | QQYHRLPLS | 0.52 / 0.42 / 0.30 / 0.14 / 0.33 / 0.27 | 0.33 | 2 of 18 (2.97)
KMSQSVDGLDRNWNSVA | YASTREM | QQYHRLPLS | 0.18 / -0.01 / 1.10 / 0.34 / -0.27 / 0.34 | 0.28 | 0 of 18
KLSQSWEYESRNSNSVA | NASTRET | QQYHRLPLE | 0.41 / 0.04 / -0.07 / 0.25 / 0.21 / 0.24 | 0.18 | 3 of 18 (3.29)
KQDQSCPGEQRNKNSVA | SASTRCE | QQYHRLPLS | 0.21 / 0.03 / 0.33 / 0.16 / 0.07 / 0.37 | 0.20 | 2 of 18 (2.21)
KFSQSVGYQTRNKNSVA | DASTRES | QQYHRLPLS | 0.14 / -0.01 / -0.15 / -0.23 / -0.07 / 0.07 | -0.04 | 0 of 18
KVQQSMEYESRNKNSVA | EASDRES | QDYHRLPLW | 2.17 / 1.50 / 2.04 / 1.48 / 1.31 / 1.30 | 1.63 | 1 of 18 (2.53)
KVFISELGLSRNKMSVA | DASTRES | QQYHRLPLS | 0.35 / 0.41 / 0.34 / 0.35 / 0.36 / 0.57 | 0.40 | 2 of 18 (2.95)
KVSQMQDYESRNKNNVA | EASTRMS | QQYHRLPLS | -0.14 / -0.42 / -0.41 / -0.68 / -0.63 / -0.33 | -0.44 | 1 of 18 (1.88)
KVSPSWLYEDRNWNSVA | QASQRNS | QQYHRLPLS | 0.35 / 0.21 / -0.01 / 0.23 / 0.04 / 0.27 | 0.18 | 0 of 18
KLMPSEWYESRMCNSVA | NASVRES | QQYHRLPLS | 0.05 / 0.05 / 0.13 / -0.10 / 0.03 / 0.11 | 0.04 | 1 of 18 (2.80)
KLSQSQEYESRNKNSVA | DAQQRES | QQYHRLPLS | 0.16 / 0.02 / -0.06 / 0.10 / -0.11 / 0.17 | 0.05 | 2 of 18 (3.56)
KSMQSVDYESRNKNSVA | NGQTREE | QQYHRLPLS | 0.56 / 0.23 / 0.18 / -0.15 / -0.10 / 0.39 | 0.18 | 1 of 18 (2.24)
KISQEDPYENRNHNNVA | HASLRES | QQYHRLPLS | 0.10 / -0.27 / -0.52 / -0.01 / -0.62 / -0.02 | -0.22 | 0 of 18
KLNISDGYEQRNKNSVA | EASTRCD | QQYHRLPLS | -0.16 / 0.06 / -0.13 / -0.35 / -0.03 / 0.06 | -0.09 | 0 of 18
KIDQWKLGESRNKNSVA | DASTRMS | QQYHRLPLS | 0.14 / 0.03 / 0.15 / -0.05 / 0.19 / 0.27 | 0.12 | 2 of 18 (2.93)
KMSQSWGYESRNSNSVA | EASTRES | QDYHRLPLS | 0.93 / 0.64 / 0.89 / 0.60 / 0.72 / 0.84 | 0.77 | 2 of 18 (2.91)
KLSQSWLYESRVKNNVA | DAHQRES | QMYHRLPLS | 1.25 / 0.82 / 1.04 / 0.92 / 1.36 / 1.12 | 1.09 | 0 of 18
KHEEGVLYQSRNKNSVA | EGSTRES | QQYHRLPLS | 0.37 / 0.22 / 0.24 / 0.17 / 0.11 / 0.20 | 0.22 | 1 of 18 (2.95)
KFSQSNLYEDRMQNNVA | NASQREQ | QQYHRLPLS | 0.01 / -0.30 / -0.09 / 0.00 / -0.16 / -0.08 | -0.10 | 0 of 18
KLPGEQGYESRNKASVA | QASTRES | QQYHRLPLS | 0.33 / 0.23 / 0.44 / -0.09 / 0.41 / -0.05 | 0.21 | 0 of 18
KMSQSWLGQSWNKNSVA | EASQRES | QQYHRLPLS | 0.04 / -0.09 / -0.18 / -0.35 / -0.26 / -0.01 | -0.14 | 0 of 18
KLMQSALLESRNFNNVA | QASQREL | QDYHRLPLS | 0.09 / 0.04 / -0.11 / -0.25 / -0.09 / 0.07 | -0.04 | 3 of 18 (2.66)
KSFQSELEEQRNDNSVA | SASTRLS | QQYHRLPLS | 0.29 / 0.11 / 0.04 / 0.10 / 0.30 / -0.26 | 0.10 | 2 of 18 (2.15)
KWSFSVLGESRNKNSVA | DASTRES | QQYERLPLS | 0.42 / 0.58 / 0.04 / 0.15 / 0.15 / 0.59 | 0.32 | 0 of 18
KLQFLGPYEQRNKNSVA | SASTRCS | QQYHRLPLS | -0.08 / -0.07 / -0.38 / -0.23 / -0.25 / -0.12 | -0.19 | 0 of 18
KLMFSCLYESRMPNSVA | NASTRYS | QQYHRLPLS | n.d. / n.d. / n.d. / 2.58 / n.d. / n.d. | 2.58 | 0 of 18
KLQMRMLYESRMKNSVA | NASLRES | QQYHRLPLS | 0.50 / 0.43 / 0.38 / 0.31 / 0.18 / 0.27 | 0.35 | 3 of 18 (3.07)
KVSMLGLYGQRNKNSVA | EASTRED | QQYHRLPLS | -0.55 / -0.40 / -0.28 / -0.55 / -0.47 / -0.56 | -0.47 | 0 of 18
KSSGSQLYEDGNKNSVA | SATQRES | QQYHRLPLS | 0.19 / 0.07 / 0.16 / 0.15 / 0.03 / 0.29 | 0.15 | 1 of 18 (1.99)
KLSQSVEYESRDKNAVA | DAQTRMS | QQYHRLPLS | -0.09 / -0.29 / -0.34 / -0.41 / -0.29 / -0.07 | -0.25 | 0 of 18
KLSYSVEYQDRNKNSVA | QASQRNS | QQYHRLPLS | 0.32 / 0.22 / -0.15 / -0.21 / 0.07 / 0.27 | 0.09 | 0 of 18
KLSQLMLYESRMKNSVA | NASTRGS | QQYHRLPLS | -0.04 / -0.11 / -0.18 / -0.20 / -0.11 / 0.15 | -0.08 | 3 of 18 (3.16)
KIMQSQLGESRNVNSVA | NASTRES | QQYHRLPLS | 0.57 / -0.02 / 0.15 / 0.03 / -0.02 / 0.23 | 0.16 | 0 of 18
LLPQSMEYESRNKNSVA | SASTRES | QQYHRLPLS | -0.13 / -0.14 / -0.26 / -0.35 / -0.20 / -0.11 | -0.20 | 0 of 18
KLYQSNKYESRMKNSVA | NASQREQ | QQYHRLPLS | 0.51 / 0.54 / 0.37 / 0.48 / 0.42 / 0.60 | 0.48 | 2 of 18 (2.65)
KAMWSWLYWSRNQNSVA | NASQREH | QQYHRLPLS | 0.00 / 0.11 / 0.22 / -0.01 / 0.29 / 0.37 | 0.16 | 0 of 18
KSAYSEPYESRNKNSVA | DASTRSS | QQYHRLPLS | 0.48 / 0.24 / 0.32 / 0.29 / 0.38 / 0.42 | 0.36 | 2 of 18 (3.23)
KVMQSVLGLQRAKNSVA | EASTRES | QQYHRLPLS | 0.31 / 0.05 / 0.01 / -0.04 / 0.09 / 0.48 | 0.15 | 0 of 18
KQEISVLQESRNQNSVA | NASTREV | QQYHRLPLS | 0.00 / -0.10 / -0.10 / -0.14 / 0.07 / 0.27 | 0.00 | 1 of 18 (2.89)

Excerpt, the first 2 entries:

CDR-L1,CDR-L2,CDR-L3,"log10 Kd, replicates","mean, log10 nM",control signals
KMSQSVLGLDRNWNSVA,YASTREM,QQYHRLPLS,0.55 / 0.31 / 0.98 / 0.47 / 0.34 / 0.52,0.53,2 of 18 (3.04)
KVSQAVPYEQRNKNNVA,DGSTRES,QQYHRLPLS,-0.14 / -0.23 / 0.03 / -0.22 / -0.11 / -0.17,-0.14,1 of 18 (3.93)

The parent sequence was in this pool as ten entries: three were never detected, three once, and four in most replicates, with averages from 0.34 to 2.37.
In the paper, a design with two or fewer of six values counts as a poor binder.
Nonspecific signal, from three strains lacking the peptide, appeared in 4% of pairings of all light chain designs, centred on 2.64 (5% of these signals below 1.59); values are not corrected for it. Also given: how often the same scFv was detected with the empty control strains, with their mean in brackets.
The range of this assay differs from that of the first round, and the authors advise against merging the two.